# According to paper PMC10070462, “Drug cytotoxicity screening using human intestinal organoids propagated with extensive cost-reduction strategies” (Scientific Reports, 2023):
# System: hiPSO-derived IECs
# Assay: Cell viability of dispersed hiPSO-derived IECs (CellTiter-Glo 3D)
# Settings: indicated doses, 48 h, Fig. 5A, B
compound,measurement,value
N[C@@H](Cc1ccc([N+]([O-])(CCCl)CCCl)cc1)C(=O)O,toxicity against IECs (cell viability),little toxicity
